scFv variants of Ab-14 (heavy chain) against a SARS-CoV-2 spike peptide

The target is the same throughout: PDVDLGDISGINAS, from the HR2 region of SARS-CoV-2 spike.

Each scFv is VH, a 15-residue (Gly4Ser)3 linker, VL, as in the parent Ab-14, and differs from it in the CDRs of the heavy chain only.
VH: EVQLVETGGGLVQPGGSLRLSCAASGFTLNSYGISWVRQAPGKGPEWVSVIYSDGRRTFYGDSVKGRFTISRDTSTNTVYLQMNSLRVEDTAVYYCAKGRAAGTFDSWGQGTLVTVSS
VL: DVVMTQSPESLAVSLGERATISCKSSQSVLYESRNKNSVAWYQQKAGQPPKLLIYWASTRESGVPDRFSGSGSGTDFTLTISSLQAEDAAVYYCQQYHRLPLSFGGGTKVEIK

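Designed CDR sequences, proposed from the first random library and measured here. Group labels follow the data file (Ctrl: baseline library sampled from a position-specific scoring matrix, with some repeated check sequences; Rand: our label for a block that the file lists under HC and that is probably the random mutants of the ten best first-round binders; En: ensemble of fine-tuned language models; GP: Gaussian process model; GPLM: also part of the Gaussian process libraries; HC: hill climbing; Gen: genetic algorithm; Gibbs: Gibbs sampling; a sequence that several methods proposed may carry one label only). In AlphaSeq, yeast of one mating type display the scFv and yeast of the other type display the target. The frequency of each diploid, read from paired DNA barcodes, reflects how well the two displayed proteins bind. Each replicate has its own calibration line, from reference interactions of the BCL2 family. The assay was run in six technical replicates.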

Changes read parent residue, position, new residue, counted from the first residue of the VH shown.
This list holds designs with at most six substitutions.
Each Kd is an estimate from the mating assay, the geometric mean of the replicates in which the pair was seen; lower is stronger.
A pair that was not seen in any replicate is written "nd"; this usually means weak binding, but a binder can also be missed.

* L29R/R56Q/F59I/D106V [Ctrl] -> nd (0 of 6 replicates; controls 0 of 18)
* F27E/F59A/K65H/R100E [Ctrl] -> 4.9 nM (6 of 6 replicates; controls 0 of 18)
* N30D/Y60I/F105A/D106L [Rand] -> 120 nM (2 of 6 replicates; controls 0 of 18)
* N30E/R100K/A101T [GP_Gen] -> 3.6 nM (1 of 6 replicates; controls 0 of 18)
* T28S/S31E/R100Q/S107L [GPLM_Gen] -> nd (0 of 6 replicates; controls 0 of 18)
* T28Q/R100W/A101T/S107T [GP_Gibbs] -> 13 nM (6 of 6 replicates; controls 0 of 18)
* T28S/S31E/G61D [GPLM_Gen] -> 2.7 nM (6 of 6 replicates; controls 1 of 18)
* S31E/Y32A/R57D/G61T/G99F/A101F [Rand] -> nd (0 of 6 replicates; controls 0 of 18)
* S31Q/D62N/G103R [Ctrl] -> nd (0 of 6 replicates; controls 0 of 18)
* T28A/G61I/A101V [GP_Gibbs] -> 30 nM (6 of 6 replicates; controls 1 of 18)
* A101V/A102E [Ctrl] -> nd (0 of 6 replicates; controls 0 of 18)
* G26T/R56E/G61T [Ctrl] -> 920 nM (4 of 6 replicates; controls 0 of 18)
* T28W/S31E/A101Q [GPLM_Gibbs] -> nd (0 of 6 replicates; controls 0 of 18)
* T28H/G61I/R100Q [GPLM_Gen] -> nd (0 of 6 replicates; controls 0 of 18)
* T28D/S31E/S53A/G61A/R100K/S107I [En_HC] -> 820 pM (4 of 6 replicates; controls 0 of 18)
* T28S/G61A/R100K/S107T [GPLM_Gen] -> 1.1 nM (6 of 6 replicates; controls 0 of 18)
* T28W/S31E/A101T/S107K [GP_Gen] -> 38 nM (6 of 6 replicates; controls 0 of 18)
* S31E/G61D/S63D/A101T [GP_HC] -> 910 pM (6 of 6 replicates; controls 1 of 18)
* T28S/S31Q/G61S/R100K [GPLM_HC] -> 770 pM (6 of 6 replicates; controls 2 of 18)
* T28N/G61I/S63D/R100N [GP_Gibbs] -> 4.1 nM (6 of 6 replicates; controls 0 of 18)
* T28S/A101Q/S107T [GPLM_Gen] -> 2.1 nM (6 of 6 replicates; controls 0 of 18)
* S31E/R100H/S107T [GPLM_Gen] -> 2.6 nM (6 of 6 replicates; controls 0 of 18)
* T28N/G61A/S107T [GP_Gibbs] -> 20 nM (6 of 6 replicates; controls 0 of 18)
* T28W/S31E/A101T/S107L [GP_Gen] -> 460 pM (2 of 6 replicates; controls 0 of 18)
* T28E/G61I/R100K/A101T/S107A [GP_Gibbs] -> 5.5 nM (6 of 6 replicates; controls 0 of 18)
* G26K/G61S/R100K/A101T [GP_Gibbs] -> 11 nM (6 of 6 replicates; controls 0 of 18)
* T28H/T58Q/T104W/D106N [Rand] -> nd (0 of 6 replicates; controls 0 of 18)
* T28Q/F59A/G61S/S107L [Ctrl] -> 37 nM (1 of 6 replicates; controls 0 of 18)
* S31E/R56L/G61T/A102Q [Ctrl] -> 4.2 nM (1 of 6 replicates; controls 0 of 18)
* S31E/A101T/S107M [GPLM_Gen] -> 1.3 nM (6 of 6 replicates; controls 1 of 18)
* T28S/S31D/S63H/A101T/S107A [GP_Gibbs] -> 1.2 nM (6 of 6 replicates; controls 1 of 18)
* N30K/G61S [GP_HC] -> 29 nM (3 of 6 replicates; controls 0 of 18)

Extract of 4 entries:

* G26T/R56E/G61T [Ctrl]: 920 nM (4 of 6 replicates; controls 0 of 18)
* T28H/G61I/R100Q [GPLM_Gen]: nd (0 of 6 replicates; controls 0 of 18)
* S31E/G61D/S63D/A101T [GP_HC]: 910 pM (6 of 6 replicates; controls 1 of 18)
* T28E/G61I/R100K/A101T/S107A [GP_Gibbs]: 5.5 nM (6 of 6 replicates; controls 0 of 18)

The authors averaged sequences with at least three values out of six and counted those with two or fewer as poor binders.
Nonspecific signal, from three strains lacking the peptide, appeared in 1% of pairings of all heavy chain designs, centred on 120 nM (5% of these signals below 7.0 nM); values are not corrected for it. For each scFv, signals with the empty controls are counted beside the result.
The parent sequence was in this pool as ten entries: three were never detected, three once, and four in most replicates, with averages from 2.2 nM to 240 nM.
Values of this round are not directly comparable with the first-round values of the same sequences.

The measurements come from Li et al. 2023 (doi:10.1038/s41467-023-39022-2) through the FLAb antibody collection.